Protein sequences, listed by entry. Tags and fused reporters are not part of them. Lines headed by an entry give the natural chain unless they say otherwise; changes in a name come on top.
UniProt Q9GZT9: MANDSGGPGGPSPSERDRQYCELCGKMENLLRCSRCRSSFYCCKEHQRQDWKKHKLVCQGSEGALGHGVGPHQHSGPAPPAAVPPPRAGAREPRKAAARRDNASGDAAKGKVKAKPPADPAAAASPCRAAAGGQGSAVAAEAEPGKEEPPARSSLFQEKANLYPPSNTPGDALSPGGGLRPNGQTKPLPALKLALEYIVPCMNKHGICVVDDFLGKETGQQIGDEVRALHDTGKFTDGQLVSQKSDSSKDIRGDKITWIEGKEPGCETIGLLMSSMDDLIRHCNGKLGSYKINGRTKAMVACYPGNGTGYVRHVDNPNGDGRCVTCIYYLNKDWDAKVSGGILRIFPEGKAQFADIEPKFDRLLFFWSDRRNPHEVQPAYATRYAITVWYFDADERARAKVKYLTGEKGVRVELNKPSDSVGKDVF

According to patent US20230218559A1, “Compositions and Methods for Treating Aging and Age-Related Diseases and Symptoms” (The Regents of the University of California, priority 2014, published 2023):

Molecular target: T1, PHD-2/Eglnl (Homo sapiens, UniProt Q9GZT9)
T1 construct: HeLa cells were lysed in M-PER buffer; endogenous in cells; host or cells: HeLa
Test: DARTS for PHD-2 in HeLa lysate
Format: binding

**Q.** `O=C(O)CCC(=O)C(=O)O` [α-KG, α-ketoglutarate] was tested. Which “binding to PHD-2 by DARTS” value did it give?
**A.** confirmed
